Consider 23 molecules from ChEMBL document CHEMBL4052822, “Design and Synthesis of Orally Bioavailable Piperazine Substituted 4(1H)-Quinolones with Potent Antimalarial Activity: Structure-Activity and Structure-Property Relationship Studies” (J Med Chem, 2018).

For assay [1], the system named is Plasmodium berghei. The assay can be described thus: animal or person. To be noted: in Mus musculus, po, read-out: INH.
Assay [2] is described as follows: Resistance index, ratio of EC50 for mefloquine/chloroquine/atovaquone/pyrimethamine-resistant Plasmodium falciparum TM90-C2B to EC50 for pyrimethamine/chloroquine-resistant Plasmodium falciparum W2. The class given is functional. The method in brief: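 Ring-stage cultures (>70% rings) were set at 0.5–0.7% parasitemia and 1.5% hematocrit under 90% N2/5% O2/5% CO2 at 37 °C. Label was added at 48 h and plates harvested at 72 h. Compounds were tested in duplicate over 11 concentrations, with EC50 from nonlinear regression.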

Assay [3] has as its system Plasmodium berghei. The assay can be described thus: animal or person. The note with it: in Mus musculus, po, read-out: INH. The source holds these as a separate data set.
Assay [4] relates to Plasmodium berghei. The assay can be described thus: Antimalarial activity against liver stage form of luciferase transfected Plasmodium berghei sporozoites infected in mouse assessed as inhibition of parasitemia at 50 mg/kg administered via oral gavage 1 hr post infection measured on day 9 by bioluminescence method relative to control. The class given is functional.
In assay [5] the test system is Plasmodium berghei. The assay can be described thus: Antimalarial activity against liver stage form of luciferase transfected Plasmodium berghei sporozoites infected in mouse assessed as inhibition of parasitemia at 100 mg/kg administered via oral gavage 1 hr post infection measured on day 9 by bioluminescence method relative to control. The assay is classed as functional.

Turning to `O=c1c(Cl)c[nH]c2cc(CN3CCN(c4ccc(F)cc4)CC3)ccc12`, in assay [1], the inhibition in vivo at 50 mg/kg came to 100%. Take `COC(=O)c1c[nH]c2cc(CN3CCN(c4ccc(OC)cc4)CC3)c(C)cc2c1=O`: the inhibition in vivo at 50 mg/kg in assay [1] was determined as 100%. Besides, in assay [2], the Ratio EC50 came out at 316. As to `COC(=O)c1c[nH]c2cc(CN3CCN(c4ccc(F)cc4)CC3)ccc2c1=O`, the inhibition in vivo at 50 mg/kg in assay [3] came to 98%. Consider `COC(=O)c1c[nH]c2cc(CN3CCN(Cc4ccccc4)CC3)c(C)cc2c1=O`, for which, in assay [1], the inhibition in vivo at 50 mg/kg was 100%. In addition, the Ratio EC50 in assay [2] was 614. For `COC(=O)c1c[nH]c2cc(CN3CCN(c4ccc(OC)cc4)CC3)c(OC)cc2c1=O`, in that order: 100% and 253. In the case of `COC(=O)c1c[nH]c2cc(CN3CCN(c4ccccc4)CC3)c(OC)cc2c1=O`, the inhibition in vivo at 50 mg/kg in assay [1] was 100%. Also, in assay [2], the Ratio EC50 is 306. As to `COC(=O)c1c[nH]c2cc(N3CCN(c4ccccc4)CC3)c(OC)cc2c1=O`, the inhibition in vivo at 50 mg/kg in assay [1] is 70%. Consider `COC(=O)c1c[nH]c2cc(CCN3CCN(Cc4ccc(OC)cc4)CC3)ccc2c1=O`, for which the Ratio EC50 in assay [2] is greater than 167. Turning to `COC(=O)c1c[nH]c2ccc(CN3CCN(c4ccc(OC)cc4)CC3)cc2c1=O`, the inhibition in vivo at 50 mg/kg in assay [1] stood at 84.6%. Consider `COC(=O)c1c[nH]c2cc(CN3CCN(c4ccc(F)cc4)CC3)c(OC)cc2c1=O`, for which the inhibition in vivo at 50 mg/kg in assay [1] was determined as 100%. Also, the Ratio EC50 in assay [2] was 122. The matching figures for `COC(=O)c1c[nH]c2cc(CN3CCN(Cc4ccc(OC)cc4)CC3)c(C)cc2c1=O`: 80% and 417. The matching figures for `COC(=O)c1c[nH]c2cc(N3CCN(c4ccccc4)CC3)c(C)cc2c1=O`: 80% and 24. As for `COC(=O)c1c[nH]c2cc(CN3CCN(Cc4ccc(OC)cc4)CC3)ccc2c1=O`, the inhibition in vivo at 50 mg/kg in assay [4] was determined as 38.8%; in assay [3], 41.2%; in assay [1], 69.2%. Further, the inhibition in vivo at 100 mg/kg in assay [5] was found to be 43.9%. For the molecule `COC(=O)c1c[nH]c2cc(CN3CCN(Cc4ccccc4)CC3)c(OC)cc2c1=O`, in assay [1], the inhibition in vivo at 50 mg/kg was determined as 80%. For `COC(=O)c1c[nH]c2cc(CN3CCN(c4ccccc4)CC3)c(C)cc2c1=O`, the inhibition in vivo at 50 mg/kg in assay [1] was found to be 46.2%. Besides, in assay [2], the Ratio EC50 turned out to be 345.

As for `COC(=O)c1c[nH]c2cc(CN3CCN(c4ccc(OC)cc4)CC3)ccc2c1=O`, in assay [1], the inhibition in vivo at 50 mg/kg is 100%. As to `COC(=O)c1c[nH]c2cc(CN3CCN(Cc4ccc(OC)cc4)CC3)c(OC)cc2c1=O`, in assay [1], the inhibition in vivo at 50 mg/kg stood at 100%.

For `COC(=O)c1c[nH]c2cc(N3CCN(c4ccccc4)CC3)ccc2c1=O`, in assay [1], the inhibition in vivo at 50 mg/kg amounted to 38.5%. With `COC(=O)c1c[nH]c2cc(CN3CCN(Cc4ccc5c(c4)OCO5)CC3)ccc2c1=O`, the inhibition in vivo at 50 mg/kg in assay [1] was found to be 40%. On to `COC(=O)c1c[nH]c2cc(CN3CCN(Cc4ccccc4)CC3)ccc2c1=O`, for which the inhibition in vivo at 50 mg/kg in assay [1] turned out to be 100%. The Ratio EC50 in assay [2] is 106. Take `Cc1[nH]c2cc(CN3CCN(c4ccc(F)cc4)CC3)ccc2c(=O)c1Cl`: in assay [1], the inhibition in vivo at 50 mg/kg was 100%. The same measure, in the same setting: for `COC(=O)c1c[nH]c2cc(N3CCN(Cc4ccccc4)CC3)c(OC)cc2c1=O` the value was 100%. As for `COC(=O)c1c[nH]c2cc(N3CCN(Cc4ccccc4)CC3)ccc2c1=O`, in assay [3], the inhibition in vivo at 50 mg/kg came out at 43.1%.
